From PubChem BioAssay (Tox21)
Several values for one entry are separate records, joined by “and”; a condition that tells them apart may be missing. Identical values can stand only once. The entries are a selection whose mix differs from that of the whole data set. Activity calls are given as the source filed them. The call rests on the fitted dose curve.

Amino acid sequences for entries named in this document (tags omitted). A change or cut given only in a name is not applied to a line headed by its entry.
UniProt P11229: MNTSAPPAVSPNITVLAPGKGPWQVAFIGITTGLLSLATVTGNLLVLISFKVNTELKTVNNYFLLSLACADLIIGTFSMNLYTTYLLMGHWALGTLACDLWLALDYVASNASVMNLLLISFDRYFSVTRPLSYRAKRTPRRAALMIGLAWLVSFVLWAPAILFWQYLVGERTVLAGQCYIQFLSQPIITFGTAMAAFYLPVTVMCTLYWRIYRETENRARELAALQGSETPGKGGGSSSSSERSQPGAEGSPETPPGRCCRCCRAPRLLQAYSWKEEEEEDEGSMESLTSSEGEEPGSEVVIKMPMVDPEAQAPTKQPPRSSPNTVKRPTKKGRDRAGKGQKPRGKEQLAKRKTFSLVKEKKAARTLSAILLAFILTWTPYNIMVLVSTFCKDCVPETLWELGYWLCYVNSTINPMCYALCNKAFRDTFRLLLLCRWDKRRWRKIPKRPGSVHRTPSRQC

target: Muscarinic acetylcholine receptor M1 (Homo sapiens) (UniProt P11229); experiment: Cholinergic receptor muscarinic 1 (CHRM1) small molecule agonists, cell-based qHTS assay (AID 1963589); conditions: CHRM1-CHO cells, agonist mode, calcium flux fluorescence; at 15.8 µM (top of the series); further: nearly all actives have a fitted effect of over 35% in size
Text: National Center for Advancing Translational Sciences [NCATS]
Division of Preclinical Innovation [DPI]
U.S. Environmental Protection Agency [EPA]
National Institutes of Environmental Health Sciences [NIEHS]
National Toxicology Program [NTP]
U.S. Food and Drug Administration [FDA]
The CHRM1 is a muscarinic receptor. This receptor plays a crucial role in learning and memory processes and has long been identified as a promising therapeutic target for the improvement of cognitive decline in Alzheimer's disease (AD). The CHRM1-CHO cell line stably expressing human muscarinic acetylcholine receptor M1 (CHRM1) can be used for screening agonists and antagonists of interactions between CHRM1 and its ligands. The CHRM1-CHO Calcium Flux Assay is a homogeneous fluorescence-based assay for detecting the intracellular calcium level using FDSS kinetic plate reader system.
CHRM1-CHO cells were dispensed at 1000 cells/3uL/well in 1536-well black-clear bottom plates using a Multidrop Dispenser. After the assay plates were incubated at a 37 C/5% CO2 incubator for 18 h, 3 uL of Dye Loading Buffer was transferred to the assay plate by a Flying Reagent Dispenser. The assay plates were incubated at 37 C for 1h. For agonist mode, 23 nL of compounds dissolved in DMSO, positive controls or DMSO only was transferred to the assay plate by a pin tool. […] Each test compound was measured at 15 concentrations in three independent runs.
On the % scale 0 is the no-effect control and ±100 the full control effect.

Row | SMILES | activation
1 | CCC(C)(OOC(C)(C)C)OOC(C)(C)C | inactive: 0.0465%

same assay, conditions: CHRM1-CHO cells, agonist mode, calcium flux fluorescence; at 35.3 µM (top of the series)

Row | SMILES | activation
2 | C[C@H]1C(=O)O[C@@H]2CCN3CC=C(COC(=O)[C@](C)(O)[C@]1(C)O)[C@H]23 | inactive: 0.0447%
3 | CCN(CC)CCOC(=O)C(O)(c1ccccc1)c1ccccc1 | inactive: 6.88%
4 | CN(C(=O)Cc1ccccc1)[C@H]1CC[C@@]2(CCCO2)C[C@@H]1N1CCCC1 | inactive: 0.0053%
5 | CN(C(=O)Cc1ccc(Cl)c(Cl)c1)[C@H]1CC[C@@]2(CCCO2)C[C@@H]1N1CCCC1 | inactive: 0%
6 | NC(=O)Nc1ccc([As](=O)(O)O)cc1 | inactive: -0.032%

same assay, conditions: CHRM1-CHO cells, agonist mode, calcium flux fluorescence; at 76.8 µM (top of the series)

Row | SMILES | activation
7 | CC(C)OP(=S)(OC(C)C)SCCNS(=O)(=O)c1ccccc1 | inactive: 0.607%
8 | C[C@H]1C(=O)O[C@@H]2CCN3CC=C(COC(=O)[C@](C)(O)[C@]1(C)O)[C@H]23 | inactive: -0.163% and inactive: -1.22%
9 | N#CSc1ccc([N+](=O)[O-])cc1[N+](=O)[O-] | inactive: 8.05%
10 | CCCCC(CC)CO[P+](=O)OCC(CC)CCCC (stereo not drawn) | inactive: -0.111%
11 | CCNC(C)Cc1ccc2c(c1)OCO2 (stereo not drawn) | inactive: 0.103%
12 | COC(=O)Cl | inactive: 1.05%
13 | COP(=S)(Cl)OC | inactive: -0.101%
14 | CN(C(=O)Cc1cccc2occc12)[C@H]1CC[C@@]2(CCCO2)C[C@@H]1N1CCCC1 | inactive: -0.846%
15 | CCCCOP(OCCCC)OCCCC | inactive: 0.0224%
16 | Cc1cc([N+](=O)[O-])cc([N+](=O)[O-])c1O | inactive: 3.47% and inactive: 2.51%
17 | CCCCCCCCCCCCCC[P+](CCCCCC)(CCCCCC)CCCCCC | inactive: -0.604%
18 | O=[P+](Oc1ccccc1)Oc1ccccc1 | inactive: -0.0005%
19 | ClP(Cl)c1ccccc1 | inactive: 0.0478%
20 | CCOP(=S)(CC)Sc1ccccc1 (stereo not drawn) | inactive: -0.229%
21 | CC(C)CCCCCCCOP(OCCCCCCCC(C)C)Oc1ccccc1 | inactive: 0.238%
22 | Cc1cc([N+](=O)[O-])c(O)c([N+](=O)[O-])c1 | inactive: 1.98%
23 | O=[p+]1oc2ccccc2c2ccccc21 (stereo not drawn) | inactive: 0.602%
24 | O=[N+]([O-])c1ccc([N+](=O)[O-])cc1 | inactive: 2.88%
25 | CCOC(=O)Cl | inactive: -0.387%
26 | O=[N+]([O-])c1ccc(S(=O)(=O)O)c([N+](=O)[O-])c1 | inactive: 0.724%
27 | O=C(Cl)Oc1ccccc1 | inactive: 0.891%
28 | NC(=O)Nc1ccc([As](=O)(O)O)cc1 | inactive: 2.38%
29 | CCCCO[P+](=O)OCCCC | inactive: -0.213% and inactive: 0.0558%
30 | O=P(Cl)(Cl)c1ccccc1 | inactive: 9.84%
31 | O=C(Cl)OCCOC(=O)Cl | inactive: 0.072%
32 | CN(N=O)C(=N)N[N+](=O)[O-] | inactive: 0.0189%
33 | O=P(Cl)(Oc1ccccc1)Oc1ccccc1 | inactive: 0.0209%
